Laboratory results as given in article PMC7949145 (The Journal of Biological Chemistry, 2021).

Amino acid sequences for entries named in this document (tags omitted). Residues count along the entry.
UniProt G7CES0, 29-471 N45T/E46D: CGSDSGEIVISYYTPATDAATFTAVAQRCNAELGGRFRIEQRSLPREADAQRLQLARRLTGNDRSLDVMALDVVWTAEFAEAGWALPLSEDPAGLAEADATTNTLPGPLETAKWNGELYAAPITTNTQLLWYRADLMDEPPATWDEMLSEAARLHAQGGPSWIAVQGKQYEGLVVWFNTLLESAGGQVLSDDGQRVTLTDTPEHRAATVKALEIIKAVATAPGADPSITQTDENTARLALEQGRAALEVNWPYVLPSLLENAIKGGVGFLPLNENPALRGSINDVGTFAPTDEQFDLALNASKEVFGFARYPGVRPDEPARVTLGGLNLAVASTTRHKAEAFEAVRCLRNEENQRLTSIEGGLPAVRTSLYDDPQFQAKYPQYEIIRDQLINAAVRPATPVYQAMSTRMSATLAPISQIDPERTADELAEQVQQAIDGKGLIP

Target: Mtr LpqY Asn25Thr-Glu26Asp (Mycolicibacterium thermoresistibile, UniProt G7CES0, E46D/N45T)
Assay: biochemical
Format: binding, Mycobacterium thermoresistible

Q: How did the Kd turn out when `OC[C@H]1O[C@H](O[C@H]2O[C@H](CO)[C@@H](O)[C@H](O)[C@H]2O)[C@H](O)[C@@H](O)[C@@H]1O` [Trehalose, α-D-glucopyranosyl-α-D-glucopyranoside] was run?
A: Its Kd is 23.4 ± 0.5 µM.
